This passage reports mortality results from patent US20070021415A1, “Pharmaceutical composition for the prevention or treatment of cerebral oedemas” (priority 2005, published 2007).

For this data set, the system named is rats. The data set can be described thus: Effect of the dose of triethyl tin. The class given is in vivo, rat.

Molecules are shown by their SMILES.

Turning to `C[CH2][Sn]([Br])([CH2]C)[CH2]C`, the mortality entry was “no mortality” (TET 3 mg/kg/d) and “mortality from the 4th day” (TET 4 mg/kg/d).
